Legend:
[1] = target: Histone deacetylase 5 (Homo sapiens, UniProt Q9UQL6); experiment: HDAC activity assays
[2] = target: T1, Histone deacetylase 6 [25-831] (Danio rerio, UniProt F8W4B7); experiment: HDAC activity assays
T1 construct: 25-831
T1 sequence (F8W4B7 whole entry): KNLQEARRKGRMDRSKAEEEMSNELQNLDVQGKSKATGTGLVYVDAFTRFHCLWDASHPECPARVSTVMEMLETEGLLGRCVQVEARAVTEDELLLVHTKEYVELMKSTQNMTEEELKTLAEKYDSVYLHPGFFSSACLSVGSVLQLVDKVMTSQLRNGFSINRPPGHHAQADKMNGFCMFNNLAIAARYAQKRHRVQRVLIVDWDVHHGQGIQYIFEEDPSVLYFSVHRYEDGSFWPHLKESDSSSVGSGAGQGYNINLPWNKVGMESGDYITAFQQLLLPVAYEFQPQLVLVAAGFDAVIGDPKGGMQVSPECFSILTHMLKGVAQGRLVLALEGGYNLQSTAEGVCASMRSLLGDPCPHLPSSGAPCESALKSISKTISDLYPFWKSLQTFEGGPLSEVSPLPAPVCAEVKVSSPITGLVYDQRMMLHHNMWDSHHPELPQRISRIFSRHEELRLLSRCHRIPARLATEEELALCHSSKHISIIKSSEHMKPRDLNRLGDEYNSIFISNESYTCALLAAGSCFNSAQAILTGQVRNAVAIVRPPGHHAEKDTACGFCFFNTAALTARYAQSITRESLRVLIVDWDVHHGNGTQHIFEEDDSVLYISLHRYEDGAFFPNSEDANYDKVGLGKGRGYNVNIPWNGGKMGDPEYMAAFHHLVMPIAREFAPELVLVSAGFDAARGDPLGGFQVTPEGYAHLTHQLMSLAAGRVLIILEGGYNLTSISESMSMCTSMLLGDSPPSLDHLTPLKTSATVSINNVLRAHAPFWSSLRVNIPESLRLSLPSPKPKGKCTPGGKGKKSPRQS

The chains behind the UniProt entries cited, without tags or fusion partners. Where a name states a change or a piece, a line headed by the entry shows the natural chain unless it says otherwise.
UniProt Q9UQL6: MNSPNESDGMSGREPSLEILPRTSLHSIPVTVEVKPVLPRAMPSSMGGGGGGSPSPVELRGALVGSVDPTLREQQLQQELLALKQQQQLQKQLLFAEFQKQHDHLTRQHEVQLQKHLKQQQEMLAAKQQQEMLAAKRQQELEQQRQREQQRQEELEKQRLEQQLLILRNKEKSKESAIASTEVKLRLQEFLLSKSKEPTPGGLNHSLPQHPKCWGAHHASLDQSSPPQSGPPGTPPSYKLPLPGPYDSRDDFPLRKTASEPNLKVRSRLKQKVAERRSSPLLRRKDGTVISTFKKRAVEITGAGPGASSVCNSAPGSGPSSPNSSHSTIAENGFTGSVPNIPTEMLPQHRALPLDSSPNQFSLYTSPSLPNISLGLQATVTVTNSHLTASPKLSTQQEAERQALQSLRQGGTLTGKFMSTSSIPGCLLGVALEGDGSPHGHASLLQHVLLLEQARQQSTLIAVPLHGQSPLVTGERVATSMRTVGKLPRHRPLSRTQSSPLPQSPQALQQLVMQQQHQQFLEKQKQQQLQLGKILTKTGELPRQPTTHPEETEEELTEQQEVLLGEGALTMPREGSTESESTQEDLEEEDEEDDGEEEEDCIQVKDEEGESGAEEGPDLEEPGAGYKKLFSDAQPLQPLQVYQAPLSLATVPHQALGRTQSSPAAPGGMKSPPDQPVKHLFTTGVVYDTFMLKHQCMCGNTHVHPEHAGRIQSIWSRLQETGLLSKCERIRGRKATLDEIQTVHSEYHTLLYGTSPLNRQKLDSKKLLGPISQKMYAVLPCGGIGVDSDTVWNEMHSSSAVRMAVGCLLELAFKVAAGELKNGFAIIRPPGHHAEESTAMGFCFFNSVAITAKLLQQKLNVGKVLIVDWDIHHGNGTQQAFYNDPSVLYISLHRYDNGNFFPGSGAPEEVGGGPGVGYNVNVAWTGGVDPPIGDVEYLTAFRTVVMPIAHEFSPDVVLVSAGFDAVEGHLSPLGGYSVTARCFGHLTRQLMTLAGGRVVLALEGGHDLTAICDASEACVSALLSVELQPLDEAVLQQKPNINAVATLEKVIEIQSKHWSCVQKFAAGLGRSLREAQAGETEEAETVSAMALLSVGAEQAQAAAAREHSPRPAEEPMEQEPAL

SMILES | IC50 [1] [µM] | IC50 [2] [µM]
C/C(=C\[C@H](C)/C=C/C(=O)NO)C(=O)c1ccc(N(C)C)cc1 [R-TSA] | 4.39 | 0.00545
C/C(=C\[C@@H](C)/C=C/C(=O)NO)C(=O)c1ccc(N(C)C)cc1 [S-TSA] | 6.32 | 

Reference: BindingDB's records for doi:10.1038/nchembio.2140 (Friedrich Miescher Institute For Biomedical Research, 2016)
